Apparent affinities of Ab-95 variants for a coronavirus HR2 peptide

Data: MIT Lincoln Laboratory AlphaSeq set, Engelhart et al. 2022, doi:10.1038/s41597-022-01779-4, as distributed in FLAb.

Target: peptide PDVDLGDISGINAS, taken from heptad repeat 2 (HR2) of SARS-CoV-2 spike.

The variants keep the heavy chain, the linker and the frameworks of Ab-95 (scFv order VH, a 15-residue (Gly4Ser)3 linker, VL).
VH: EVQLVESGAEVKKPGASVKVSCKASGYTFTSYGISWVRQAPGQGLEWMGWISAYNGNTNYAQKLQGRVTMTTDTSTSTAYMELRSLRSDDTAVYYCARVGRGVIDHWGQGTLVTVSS
VL: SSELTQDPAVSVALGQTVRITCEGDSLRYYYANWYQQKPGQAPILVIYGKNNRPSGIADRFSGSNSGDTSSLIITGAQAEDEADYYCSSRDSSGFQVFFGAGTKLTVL

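The parent was found by panning a naive human phage display library on the peptide. The library (AAYL52) carries one to three amino acid substitutions per variant, with no insertions or deletions. The scFvs were displayed on barcoded MATa yeast, the peptide on MATalpha yeast. After mating in shaken culture at 30 °C for 16 h, diploids were selected and their barcode pairs sequenced. Scores were corrected for input abundance and mapped to Kd with protein pairs of known affinity run in the same pool. Each pool was mated in three replicate cultures.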

Changes read parent residue, position, new residue, counted from the first residue of the VL shown.
All variants listed here change Y31 of the VL, counted from its first residue.
Kd is apparent (estimated from mating counts) and averaged on the log scale over replicates with a signal. Smaller is tighter.
Where no diploid with the target was found in any replicate, the entry reads "nd": below detection, most likely a poor binder, though not proof of it.

The variant Y31S+N33K+R90E gave 10 µM (2 of 3 replicates). The variant R28I+Y31V+K50M showed 23 µM (2 of 3 replicates). The variant Y31I+S55M+S88D gave 650 µM (2 of 3 replicates). The variant Y31C+S92M gave 60 nM (3 of 3 replicates). The variant Y31E+S88L+F98D showed 12 nM (3 of 3 replicates). With Y31G+D91G+F98L the result was 1.1 µM (2 of 3 replicates).

The variant Y31I+N33Q+V97C showed 13 µM (1 of 3 replicates). The variant Y31H+R53N showed 480 nM (3 of 3 replicates). For E23G+Y31A+N33M, the assay gave 860 nM (3 of 3 replicates). The variant Y30M+Y31H+Q96F gave 79 nM (3 of 3 replicates). The variant Y31N+S55V+F98I showed 3.3 µM (3 of 3 replicates). The variant Y31S+D91Y gave 140 nM (3 of 3 replicates).

For Y31I+N52H+G94S, the assay gave 1.9 µM (1 of 3 replicates). The variant Y31D+G94S gave 52 nM (3 of 3 replicates). For Y31F+A32Q+N51H, the assay gave 9.2 µM (3 of 3 replicates). With Y31M+G94I+V97M the result was 32 µM (1 of 3 replicates). With S26M+Y31G the result was 100 nM (3 of 3 replicates). The variant Y31I+G49S+S93L gave 2.1 µM (1 of 3 replicates).

The variant G24W+D25N+Y31W showed 57 µM (1 of 3 replicates). The variant Y29V+Y31I+N52K gave 1.2 µM (1 of 3 replicates). The variant G24H+Y31C+G49F showed nd (0 of 3 replicates). With E23D+Y31T+S92K the result was 280 nM (3 of 3 replicates). The variant Y31G+N52L+S89M showed 23 nM (3 of 3 replicates). The variant S26V+L27H+Y31E showed 230 nM (3 of 3 replicates).

With Y31P+G49C the result was 23 µM (1 of 3 replicates). With Y31T+A32I+N52M the result was 5.8 µM (2 of 3 replicates). For D25Y+Y29S+Y31D, the assay gave 6.8 nM (3 of 3 replicates). The variant Y31K+R53D+Q96N showed 330 nM (3 of 3 replicates). The variant Y31E+R53H+S92F showed 1.6 µM (3 of 3 replicates). The variant Y30A+Y31M+S89N gave 110 nM (3 of 3 replicates).

With Y31P+N51Y+D91K the result was 10 µM (1 of 3 replicates). With Y31E+G49L+N51I the result was nd (0 of 3 replicates). With Y31I+F95H+V97D the result was nd (0 of 3 replicates). With D25E+L27A+Y31H the result was 1.3 µM (3 of 3 replicates). For D25G+Y30H+Y31V, the assay gave 1.9 µM (3 of 3 replicates). With Y31V+R90E+F98L the result was 24 µM (1 of 3 replicates).

With R28S+Y31M+K50V the result was 140 nM (3 of 3 replicates). For Y31P+R53P+V97Y, the assay gave 40 µM (1 of 3 replicates). With R28N+Y31M+N52T the result was 71 nM (3 of 3 replicates). The variant Y29G+Y31S+D91Q gave nd (0 of 3 replicates). For L27D+Y31Q+S93M, the assay gave 31 µM (1 of 3 replicates). With Y31S+A32I+S93C the result was 170 nM (3 of 3 replicates).

The variant Y29K+Y31I+N52M showed 1.4 µM (2 of 3 replicates).

The 7 strongest on average among those seen in every replicate, once more:

| changes | apparent Kd | seen in |
|---|---|---|
| D25Y+Y29S+Y31D | 6.8 nM | 3/3 |
| Y31E+S88L+F98D | 12 nM | 3/3 |
| Y31G+N52L+S89M | 23 nM | 3/3 |
| Y31D+G94S | 52 nM | 3/3 |
| Y31C+S92M | 60 nM | 3/3 |
| R28N+Y31M+N52T | 71 nM | 3/3 |
| Y30M+Y31H+Q96F | 79 nM | 3/3 |

Background: pairings of library AAYL52 with three empty control strains gave a value in 28% of cases (median 8.2 µM, 5th percentile 800 nM). Values in that range, when seen in few replicates, are hard to tell from nonspecific mating.